## Antibody variant affinities, Ab-14 heavy chain, assay 1

All variants were tested on one target, the spike HR2 peptide PDVDLGDISGINAS (SARS-CoV-2).

Ab-14 is the parent antibody, in scFv form: VH, then a (GGGGS)3 linker, then VL. The light chain is unchanged in all variants.
VH: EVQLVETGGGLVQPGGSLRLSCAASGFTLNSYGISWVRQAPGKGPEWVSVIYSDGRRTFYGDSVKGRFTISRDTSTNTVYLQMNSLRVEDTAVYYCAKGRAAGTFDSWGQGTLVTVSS
VL: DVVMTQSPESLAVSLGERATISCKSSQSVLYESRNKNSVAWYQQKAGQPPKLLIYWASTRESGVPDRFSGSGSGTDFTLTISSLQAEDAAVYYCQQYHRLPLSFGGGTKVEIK

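Phage display of a naive human antibody library on the peptide gave the parent. In library AAYL49, one, two or three CDR residues were substituted; doubles and triples were drawn at random. Affinity was read by AlphaSeq, a pooled yeast mating assay with surface-displayed partners. After mating in shaken culture at 30 °C for 16 h, diploids were selected and their barcode pairs sequenced. Each replicate has its own calibration line, from reference interactions of the BCL2 family. The assay was run in three technical replicates.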

Positions count from residue 1 of the parent VH; S31V puts V in place of S.
This list gathers variants with a substitution at S31 (VH, numbered from residue 1).
Affinities are written as log10 Kd with Kd in nM; a lower number is a better binder.
"n.d." marks a missing value. The strain was present, yet no cells mated with the target were sequenced in that replicate, which points to weak or no binding.
Three control strains display no target. For library AAYL49, 15% of the pairings with them gave a signal, with a median of 4.06 and one signal in twenty below 2.83, so weak values seen in few replicates may be background. The control count says in how many pairings with the empty strains this scFv gave a signal, with their mean in brackets.

| changes | replicates, log10 nM | control signals |
|---|---|---|
| S31V/S35E/D54H | n.d. n.d. n.d. | 1/9 (2.09) |
| S31R/I34M/S35H | n.d. 3.30 4.10 | 1/9 (2.67) |
| S31L/V50F/F105R | n.d. n.d. 5.12 | 0/9 |
| S31T/G33P/A101R | n.d. n.d. 4.65 | 1/9 (3.17) |
| S31T | 1.90 1.68 1.87 | 4/9 (4.28) |
| S31D/I34T/V50W | n.d. n.d. n.d. | 3/9 (4.90) |
| L29D/S31I/Y32R | n.d. n.d. n.d. | 1/9 (5.05) |
| S31I/R56Q/S107G | n.d. n.d. n.d. | 1/9 (3.16) |
| G26I/L29G/S31R | n.d. n.d. n.d. | 0/9 |
| S31I/I51L/A101S | 3.82 3.73 4.32 | 6/9 (3.93) |
| S31A/I34E/G103T | n.d. n.d. n.d. | 0/9 |
| S31N/I34E | n.d. 5.00 n.d. | 1/9 (2.99) |
| N30W/S31M/R100Q | n.d. 4.04 n.d. | 1/9 (3.57) |
| S31C/A102V | n.d. n.d. 3.38 | 0/9 |
| N30M/S31A/S53M | n.d. n.d. n.d. | 4/9 (4.69) |
| S31T/T58Q/A101K | n.d. 2.37 2.86 | 0/9 |
| L29S/S31V | n.d. 2.97 n.d. | 2/9 (3.12) |
| N30P/S31M | 1.82 1.97 2.02 | 0/9 |
| S31T/D54C/V64C | n.d. n.d. n.d. | 0/9 |
| S31N/G55S/D106I | 3.79 4.98 5.81 | 4/9 (3.78) |
| S31A/G33P/D106F | n.d. n.d. n.d. | 0/9 |
| S31D/G55S/A101K | n.d. n.d. n.d. | 0/9 |
| S31C/G61H | 1.68 1.72 2.11 | 4/9 (4.03) |
| N30E/S31M/D62M | 3.96 3.55 3.81 | 1/9 (4.46) |
| S31A/S53R/Y60I | n.d. n.d. 5.45 | 2/9 (3.88) |
| S31K/F59V/S63H | 3.84 3.85 4.19 | 4/9 (4.49) |
| S31R/I51H/A102L | 5.54 n.d. n.d. | 3/9 (4.34) |
| L29I/S31C/I34P | 3.51 n.d. n.d. | 1/9 (4.59) |
| S31F/A102H/F105H | n.d. 4.04 n.d. | 1/9 (2.89) |
| S31D/D54Q/Y60I | n.d. n.d. n.d. | 2/9 (3.50) |
| S31T/G103L/S107L | n.d. n.d. n.d. | 3/9 (4.08) |
| S31H/F59C/D62V | 4.26 n.d. n.d. | 0/9 |
| F27A/S31L/F59W | n.d. n.d. n.d. | 0/9 |
| L29R/S31T/D62Y | n.d. n.d. n.d. | 2/9 (2.51) |

The last 3 entries again:

| changes | replicates, log10 nM | control signals |
|---|---|---|
| S31H/F59C/D62V | 4.26 n.d. n.d. | 0/9 |
| F27A/S31L/F59W | n.d. n.d. n.d. | 0/9 |
| L29R/S31T/D62Y | n.d. n.d. n.d. | 2/9 (2.51) |

Data: MIT Lincoln Laboratory AlphaSeq set, Engelhart et al. 2022, doi:10.1038/s41597-022-01779-4, as distributed in FLAb.